# Test results published in patent US20250382344A1, “Soluble GLP1/GIP/NPY2 Receptor Triple Agonists” (Boehringer Ingelheim International GmH, priority 2024, published 2025).
# The chains behind the UniProt entries cited, without tags or fusion partners. Residues count along the entry.
# UniProt P43220, 24-463: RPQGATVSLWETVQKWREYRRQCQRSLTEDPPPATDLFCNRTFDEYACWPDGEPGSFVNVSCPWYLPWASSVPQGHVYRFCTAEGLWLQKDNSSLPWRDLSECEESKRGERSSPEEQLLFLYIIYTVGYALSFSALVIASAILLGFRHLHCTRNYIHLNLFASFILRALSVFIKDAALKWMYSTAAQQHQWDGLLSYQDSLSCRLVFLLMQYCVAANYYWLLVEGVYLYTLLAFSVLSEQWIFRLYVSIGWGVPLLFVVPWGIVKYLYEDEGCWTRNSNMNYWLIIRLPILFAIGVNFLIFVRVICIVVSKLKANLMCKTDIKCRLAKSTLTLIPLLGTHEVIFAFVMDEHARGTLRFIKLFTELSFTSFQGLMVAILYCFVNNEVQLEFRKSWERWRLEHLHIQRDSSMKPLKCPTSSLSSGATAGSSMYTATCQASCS
# UniProt P49146, whole entry: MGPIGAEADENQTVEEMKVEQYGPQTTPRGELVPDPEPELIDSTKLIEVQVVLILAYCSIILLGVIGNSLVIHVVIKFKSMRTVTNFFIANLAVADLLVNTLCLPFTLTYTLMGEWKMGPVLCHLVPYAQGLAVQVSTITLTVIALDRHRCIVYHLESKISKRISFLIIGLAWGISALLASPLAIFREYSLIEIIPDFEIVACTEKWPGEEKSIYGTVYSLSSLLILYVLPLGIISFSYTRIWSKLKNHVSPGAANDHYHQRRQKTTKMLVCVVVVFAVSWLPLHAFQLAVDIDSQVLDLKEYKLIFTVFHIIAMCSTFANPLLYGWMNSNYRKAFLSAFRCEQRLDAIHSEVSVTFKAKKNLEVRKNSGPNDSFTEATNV
# Residue numbers refer to the chain shown, from its start. Like-named read-outs stand apart in the source and are kept apart here.
# B1: Compound 20 (peptide)
# peptide: YXEGTFTSDLSIXLEKQAQXAFVRHLINKXTRQRY
# modifications: Aib at 2, 13, 20, 30; Lys29 epsilon-amino acylated with C20DA-gGlu-gGlu-gGlu-gGlu-gGlu-gGlu-eLys; C-terminal amide
# B2: Compound 56 (peptide)
# peptide: B1 peptide with L10Y, A21E
# modifications: Aib at 2, 13, 20, 30; Lys29 epsilon-amino acylated with C18DA-gGlu-gGlu-gGlu-gGlu-gGlu-gGlu; C-terminal amide
# B3: Compound 141 (peptide)
# peptide: B1 peptide with L10Y
# modifications: Aib at 2, 13, 20, 30; Lys29 epsilon-amino: C18DA-gGlu-gGlu-gGlu-gGlu-gGlu-eLys; C-terminal amide
# B4: Compound 149 (peptide)
# peptide: B1 peptide with L10Y, A21E
# modifications: Aib at 2, 13, 20, 30; Lys29 epsilon-amino: C20DA-gGlu-gGlu-gGlu-gGlu-gGlu-gGlu-eLys; C-terminal amide
# Legend:
# hGIPR = target: T1, hGIPR (Homo sapiens, UniProt P48546); test: hGIPR CreLuc assay in 0.5% and 100% plasma (CHO CRE-luciferase reporter cells); assay type: cell-based
# T1 construct: expressed in transfected cells; host or cells: CHO CRE-luciferase reporter cells
# T1 sequence (P48546 22-466): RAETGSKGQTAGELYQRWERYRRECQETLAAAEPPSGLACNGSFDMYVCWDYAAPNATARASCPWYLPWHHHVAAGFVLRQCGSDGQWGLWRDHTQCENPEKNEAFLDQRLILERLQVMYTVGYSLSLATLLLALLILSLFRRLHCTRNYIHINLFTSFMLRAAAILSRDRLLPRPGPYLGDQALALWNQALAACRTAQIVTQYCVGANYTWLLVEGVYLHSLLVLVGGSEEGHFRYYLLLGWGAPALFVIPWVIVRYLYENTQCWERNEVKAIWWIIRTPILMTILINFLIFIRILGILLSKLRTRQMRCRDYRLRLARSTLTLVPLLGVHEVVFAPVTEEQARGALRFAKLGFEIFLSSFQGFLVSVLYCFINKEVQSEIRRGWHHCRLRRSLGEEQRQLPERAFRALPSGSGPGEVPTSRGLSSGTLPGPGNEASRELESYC
# Description: (§1) CHO and HEK-293 recombinant cell lines express a luciferase reporter gene under control of the CAMP responsive element (CRE). As a second recombinant protein the GLP-1 and NPY2 receptors were expressed in the reporter gene HEK cells, and the GIP receptor was expressed in the reporter gene CHO cells, respectively. Stimulation of these recombinant cells with an agonist leads to an increase of intracellular CAMP levels. In the presence of CAMP, the transcription factor CRE binding protein (CREB) binds to the CRE and to the CREB binding protein (CBP), which leads to transcription of the luciferase reporter gene. Peptides upon serial-dilution in 100% DMSO were transferred into 384-well assay plates with 5 μl pre-dispensed assay buffer (1×HBSS, 20 mM HEPES, pH7.4 supplemented with 0.5% human plasma) using acoustic dispensing on a Labcyte ECHO. Cryo-preserved transgenic reporter gene cells were thawed in assay buffer. 20 μl (10.000 cells/well) were added to the plate with the peptides and incubated for 4 hours at 37° C. in a humidified incubator. Following incubation, assay plates are equilibrated to room temperature, followed by addition of 25 μl of Bright-Glo™ Luciferase reagent, incubation at room temperature for 10 minutes and analysis of luminescence (Envision Reader). […] EC50 values were calculated by non-linear regression using sigmoid concentration-response with variable slope.
# (§2) The same assays were run in the presence of 100% plasma with no additional buffer constituents.
# hGLP1R = target: T2, hGLP1R (Homo sapiens, UniProt P43220); test: hGLP1R CreLuc assay in 0.5% and 100% plasma (HEK-293 CRE-luciferase reporter cells); assay type: cell-based
# T2 construct: expressed in transfected cells; host or cells: HEK-293 CRE-luciferase reporter cells
# Description: as §1, §2
# [1] = Solubility in 0.1 M phosphate buffer at pH 7; assay type: physicochemical; conditions: 0.1 M phosphate buffer at pH 7, 10 mg/mL final peptide concentration, shaking 2 hours at room temperature, peptides as TFA-salts; measured sample pH 6.5-7.0
# Description: Peptides (as TFA-salts) were weighed out in a filter unit (Mini-UniPrep Syringeless Filter 0.45 μm, Whatman PVDF), and 0.1 M phosphate buffer at pH 7 was added to achieve 10 mg/mL final peptide concentration. The peptides were dissolved by shaking the filter units horizontally at 600 rpm for 2 hours at room temperature. Samples were then filtered to remove any insoluble particles. Controls were prepared by weighing out the corresponding peptide solid material and dissolving it in an appropriate vehicle (e.g. ACN:H2O) to a final concentration of 1 mg/mL. Both, the control and sample were analyzed by reversed phase chromatography. The area under the peak of the sample was compared to the control and the solubility was calculated based on that ratio. The pH was measured and recorded for each sample.
# hNPY2R = target: T3, hNPY2R (Homo sapiens, UniProt P49146); test: hNPY2R CreLuc assay in 0.5% and 100% plasma (HEK-293 CRE-luciferase reporter cells); assay type: cell-based
# T3 construct: expressed in transfected cells; host or cells: HEK-293 CRE-luciferase reporter cells
# Description: as §1, §2
# human GLP-1 receptor [2] = target: human GLP-1 receptor (human, UniProt P43220 24-463); test: cell-based or functional assay
# [3] = target: human neuropeptide Y2 receptor (human, UniProt P49146 1-381); test: cell-based or functional assay
# human GLP-1 receptor [4] = target: human GLP-1 receptor (human, UniProt P43220 24-463); test: cell-based or functional assay; remark: listed apart in the source
# human GIP receptor = target: T4, human GIP receptor (human, UniProt P48546 22-466); test: cell-based or functional assay
# T4 sequence (looked up): T1 sequence (P48546 22-466)
molecule,measurement,setting,value
"CC[C@H](C)[C@H](NC(=O)[C@H](CC(C)C)NC(=O)[C@H](Cc1c[nH]cn1)NC(=O)[C@H](CCCNC(=N)N)NC(=O)[C@@H](NC(=O)[C@H](Cc1ccccc1)NC(=O)[C@H](C)NC(=O)C(C)(C)NC(=O)[C@H](CCC(=O)O)NC(=O)[C@H](C)NC(=O)[C@H](CCC(N)=O)NC(=O)[C@H](CCCCN)NC(=O)[C@H](CCC(=O)O)NC(=O)[C@H](CC(C)C)NC(=O)[C@](C)(CC(C)C)NC(=O)[C@@H](NC(=O)[C@H](CO)NC(=O)[C@H](Cc1ccc(O)cc1)NC(=O)[C@H](CC(=O)O)NC(=O)[C@H](CO)NC(=O)[C@@H](NC(=O)[C@H](Cc1ccccc1)NC(=O)[C@@H](NC(=O)CNC(=O)[C@H](CCC(=O)O)NC(=O)C(C)(C)NC(=O)[C@@H](N)Cc1ccc(O)cc1)[C@@H](C)O)[C@@H](C)O)[C@@H](C)CC)C(C)C)C(=O)N[C@@H](CC(N)=O)C(=O)N[C@@H](CCCCNC(=O)[C@@H](N)CCCCNC(=O)CC[C@H](NC(=O)CC[C@H](NC(=O)CC[C@H](NC(=O)CC[C@H](NC(=O)CC[C@H](NC(=O)CC[C@H](NC(=O)CCCCCCCCCCCCCCCCCCC(=O)O)C(=O)O)C(=O)O)C(=O)O)C(=O)O)C(=O)O)C(=O)O)C(=O)NC(C)(C)C(=O)N[C@H](C(=O)N[C@@H](CCCNC(=N)N)C(=O)N[C@@H](CCC(N)=O)C(=O)N[C@@H](CCCNC(=N)N)C(=O)N[C@@H](Cc1ccc(O)cc1)C(N)=O)[C@@H](C)O [Compound 103, Y-Aib-E-G-T-F-T-S-D-Y-S-I-aMeL-L-E-K-Q-A-E-Aib-A-F-V-R-H-L-I-N-K(1,3)-Aib-T-R-Q-R-Y-NH2.C20DA-gGlu-gGlu-gGlu-gGlu-gGlu-gGlu-eLys(1,2)]",EC50,"hGIPR; 100% human plasma, read-out: hGIPR 100% hP",3.6 nM
"Y-Aib-E-G-T-F-T-S-D-Y-S-I-Aib-L-E-K-Q-A-E-Aib-A-F-V-R-H-L-I-N-K(1,3)-Aib-T-R-Q-R-Y-NH2.C20DA-gGlu-gGlu-gGlu-gGlu-OEG-gGlu-eLys(1,2) [Compound 148]",EC50,"hGIPR; read-out: hGIPR 0.5% hP, 0.5% human plasma",0.8 nM
same,EC50,"hGIPR; read-out: hGIPR 100% hP, 100% human plasma",17.3 nM
same,EC50,"hGLP1R; read-out: hGLP1R 0.5% hP, 0.5% human plasma, HEK-293 reporter cells",3.2 nM
same,EC50,"hGLP1R; read-out: hGLP1R 100% hP, 100% human plasma, HEK-293 reporter cells",3.9 nM
same,Solubility,[1],8600 µg/mL
same,EC50,"hNPY2R; read-out: hNPY2R 0.5% hP, 0.5% human plasma, HEK-293 reporter cells",9.5 nM
same,EC50,"hNPY2R; read-out: hNPY2R 100% hP, 100% human plasma, HEK-293 reporter cells",68 nM
B1,"EC50, CreLuc reporter, 0.5% hP",human GLP-1 receptor [2],3.9 nM
same,"EC50, CreLuc reporter, 100% hP",human GLP-1 receptor [2],11 nM
same,"EC50, CreLuc reporter, 0.5% hP",[3],9.5 nM
B2,"EC50, CreLuc reporter, 0.5% hP",[3],122 nM
B3,"EC50, CreLuc reporter, 100% hP",human GLP-1 receptor [4],4.1 nM
B4,"EC50, CreLuc reporter, 100% hP",human GIP receptor,7.6 nM
